1 molecule from patent publication US20100249071A1, “Modulators of S1P and Methods of Making And Using” (Exelixis, Inc., priority 2009, published 2010) can be followed below.

Chains of the proteins cited; added tags and fusions are not shown.
UniProt Q9H228, whole entry: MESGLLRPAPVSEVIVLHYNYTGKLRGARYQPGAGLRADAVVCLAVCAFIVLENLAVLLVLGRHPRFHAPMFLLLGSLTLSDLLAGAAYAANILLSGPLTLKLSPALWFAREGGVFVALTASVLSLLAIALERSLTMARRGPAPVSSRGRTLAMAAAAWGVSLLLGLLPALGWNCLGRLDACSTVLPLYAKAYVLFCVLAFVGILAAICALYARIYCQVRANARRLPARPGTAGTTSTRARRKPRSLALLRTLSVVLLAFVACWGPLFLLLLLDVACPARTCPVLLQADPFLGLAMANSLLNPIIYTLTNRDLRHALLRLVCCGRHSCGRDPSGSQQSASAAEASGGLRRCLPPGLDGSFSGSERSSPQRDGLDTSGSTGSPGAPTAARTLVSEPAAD
UniProt P21453, whole entry: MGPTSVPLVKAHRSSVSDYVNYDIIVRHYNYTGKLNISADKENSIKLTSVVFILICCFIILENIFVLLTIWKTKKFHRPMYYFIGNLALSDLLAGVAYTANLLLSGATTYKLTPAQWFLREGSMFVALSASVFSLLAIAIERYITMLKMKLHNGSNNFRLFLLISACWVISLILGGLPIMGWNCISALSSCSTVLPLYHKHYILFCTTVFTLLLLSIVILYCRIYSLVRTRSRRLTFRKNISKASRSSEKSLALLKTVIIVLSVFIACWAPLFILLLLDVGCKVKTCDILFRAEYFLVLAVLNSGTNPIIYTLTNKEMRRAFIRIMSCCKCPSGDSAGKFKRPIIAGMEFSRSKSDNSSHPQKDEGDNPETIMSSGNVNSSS
UniProt P32121, whole entry partner: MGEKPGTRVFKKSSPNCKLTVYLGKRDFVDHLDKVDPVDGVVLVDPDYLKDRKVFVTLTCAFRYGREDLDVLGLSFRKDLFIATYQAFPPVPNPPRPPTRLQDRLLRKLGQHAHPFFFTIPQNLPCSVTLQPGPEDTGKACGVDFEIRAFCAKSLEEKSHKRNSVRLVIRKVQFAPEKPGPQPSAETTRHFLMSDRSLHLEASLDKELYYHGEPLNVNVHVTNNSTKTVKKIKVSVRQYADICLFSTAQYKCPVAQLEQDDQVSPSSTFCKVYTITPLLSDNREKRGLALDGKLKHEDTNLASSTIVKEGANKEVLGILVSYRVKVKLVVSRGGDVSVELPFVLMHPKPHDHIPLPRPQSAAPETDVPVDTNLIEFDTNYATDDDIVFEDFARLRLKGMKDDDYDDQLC

Test [1] deals with hS1PR5 (hEdg8) membrane protein (Homo sapiens, UniProt Q9H228). Description: hS1P5R GTPγS binding assay (Assay 4). The settings on record: read-out: Assay 4 EC50. As for the experimental part:
The hS1PR5 GTPγS binding assay was carried out at room temperature in 96-well non-binding surface assay plates. The reaction in each well contained 5 μg hS1PR5 (hEdg8) membrane protein from CHO cells expressing hS1PR5, 30 μM GDP, 0.1 nM [^35S]GTPγS, 0.25% fatty acid free BSA, and serially-diluted Compound of the Invention in 200 μL assay buffer (25 mM Tris-HCl PH 7.9, 100 mM NaCl, 3 mM MgCl2, and 0.2 mM EGTA). After one hour of incubation, 0.9 mg of WGA (Wheat Germ Agglutinin) SPA beads in 50 μL of assay buffer was added to each well. The SPA beads were spun down after an additional one hour incubation. The radioactivity of the bound GTPγS was counted by reading the assay plate using a MicroBeta.
A general note: GTPγS is a poorly hydrolysed GTP analogue; its binding reports G protein activation.

The target in test [2] is hS1P1R (hEdg1) membrane protein (Homo sapiens, UniProt P21453). Briefly: hS1P1R GTPγS binding assay (Assay 3a). The settings on record: read-out: Assay 3a EC50. As for the experimental part:
Assay 3a: The hS1P1R GTPγS binding assay was carried out at room temperature in 96 well non-binding surface assay plates. The reaction in each well contained 4 μg hS1P1R (hEdg1) membrane protein (Lonza), 30 μM GDP, 0.1 nM [^35S]GTPγS, 0.25% fatty acid free BSA, and serially diluted hS1P1R agonist compound in 200 μL assay buffer (25 mM Tris-HCl PH 7.9, 100 mM NaCl, 3 mM MgCl2, and 0.2 mM EGTA). After one hour of incubation, 0.9 mg of WGA (Wheat Germ Agglutinin) SPA beads in 50 μL of assay buffer was added to each well. The SPA beads were spun down after an additional one hour incubation. The radioactivity of the bound GTPγS was counted by reading the assay plate using a MicroBeta.

For another test, the target named is S1P1 (Homo sapiens, UniProt P21453). Description: Tango β-arrestin recruitment assay in U2OS cells (Assay 2b). The settings on record: read-out: Assay 2b EC50. From the text:
For the Tango™ β-arrestin recruitment assay, the cytoplasmic C-terminus of S1P1 was tethered to the tTA transcriptional activator with a linker that contains a cleavage site for the N1a protease from tobacco etch virus (TEV protease). The C-terminus of the human β-arrestin2 protein was fused to TEV protease. Binding of an agonist recruits the βl -arrestin-TEV fusion protein to the receptor resulting in cleavage of the linker and released of tTA to enter the nucleus and subsequently activated a tTA-dependent luciferase reporter gene.
Assay 2b: Alternatively, U2OS cells expressing the reporter gene and S1P1 (Invitrogen) were added to the wells of a 384-well white opaque bottom assay plate (PerkinElmer) at 0.3125×10^6 cells per well. […] Fluorescence was measured using an EnVision plate reader (PerkinElmer, Waltham, Mass.) at an excitation wavelength of 409 nm and emission wavelengths of 460 nm and 530 nm. The emission intensity at each wavelength was background subtracted against wells containing medium only and the F460 nm/F530 nm ratio determined for each concentration of the test compounds. Percent activity was calculated as [(test compound ratio−DMSO ratio)/(positive control ratio−DMSO ratio)*100], where the positive control and DMSO ratios are from cells incubated with the efficacy control 1 μM S1P and 1% DMSO, respectively. […]

SMILES strings stand for the structures.

On to `CC(C)Oc1ccc(-c2nnc(-c3cc(F)c(OC[C@H](N)CO)cc3Cl)s2)cc1`, for which the 50% effective concentration (EC50) (in general, the concentration needed to bring the measured effect to its halfway point) in test [1] is 250 to 2800 nM; in test [2], 50 to 250 nM; on S1P1 it was 50 to 250 nM.
